According to PubChem BioAssay AID602428 (Sanford-Burnham Center for Chemical Genomics, 2012):
The list shows a part of the results, in another mix than the full data. Active and inactive are the calls of the source.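 How the source made its calls: active means mean inhibition at 5 µM reaching about 45% (limit read from the data); inactive means the rest.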

Experiment: blockers of Gli reporter signaling – single concentration, luciferase luminescence, Sufu-KO-LIGHT cells, confirmation (AID 602428);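 further: plate controls were DMSO-treated cells for no effect and wells lacking cells for full effect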
Details: at 5 µM, hits give high values

| Compound | inhibition |
| --- | --- |
| CN1CCCC(OC(=O)C(c2ccccc2)c2ccccc2)C1 (stereo not drawn) | inactive: 16% |
| N#C/C(=C\c1ccc(N(CCBr)CCBr)cc1)C(N)=O | active: 74.1% |
| CC(=O)NC(SC(=S)N(C)C)C(Cl)(Cl)Cl (stereo not drawn) | active: 77.7% |
